# Laboratory results published in patent US20230365546A1, “5-SUBSTITUTED INDOLE 3-AMIDE DERIVATIVES, PREPARATION METHOD AND USE THEREOF” (ORIGIANT PHARMACEUTICAL CO., LTD, priority 2020, published 2023).
# Chains of the proteins cited; added tags and fusions are not shown.
# UniProt Q13546, whole entry: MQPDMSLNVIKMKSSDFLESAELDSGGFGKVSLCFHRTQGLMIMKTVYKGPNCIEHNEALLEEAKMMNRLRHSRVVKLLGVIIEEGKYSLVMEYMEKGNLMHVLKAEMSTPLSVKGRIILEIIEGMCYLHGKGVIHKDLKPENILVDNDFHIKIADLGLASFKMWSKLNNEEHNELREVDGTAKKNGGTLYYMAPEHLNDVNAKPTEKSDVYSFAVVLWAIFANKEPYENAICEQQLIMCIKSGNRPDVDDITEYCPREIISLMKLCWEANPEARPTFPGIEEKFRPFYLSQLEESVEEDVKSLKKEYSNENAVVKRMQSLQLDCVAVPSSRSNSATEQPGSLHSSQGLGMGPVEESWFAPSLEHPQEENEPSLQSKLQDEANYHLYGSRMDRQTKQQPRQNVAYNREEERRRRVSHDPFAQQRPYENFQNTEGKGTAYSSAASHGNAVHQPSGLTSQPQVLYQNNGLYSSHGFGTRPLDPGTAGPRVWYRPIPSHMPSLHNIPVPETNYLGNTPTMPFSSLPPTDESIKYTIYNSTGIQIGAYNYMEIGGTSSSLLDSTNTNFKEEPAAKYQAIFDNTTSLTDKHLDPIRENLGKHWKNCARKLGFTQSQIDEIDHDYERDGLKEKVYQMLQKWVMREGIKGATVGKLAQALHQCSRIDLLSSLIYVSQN
# Columns and labels:
# [1] = biological target: RIPK1 (Homo sapiens (Human), UniProt Q13546); assay: In vitro kinase assay (Eurofins Kinase Profiler), IC50; settings: read-out: RIPK 1 (IC50), 0.001-10 μM
# [2] = system: HT-29 cells; assay: Protection against programmed necrosis of HT-29 cells (TNF α/Smac mimetic/Z-VAD-FMK, CCK8); settings: read-out: HT-29 (EC50), TNF α/Smac mimetic/Z-VAD-FMK induced 24 h
# Procedure: In vitro protection against programmed necrosis of HT-29 cells was conducted by ourselves.
# DMEM medium was purchased from Gibco Inc., penicillin and streptomycin were purchased from HyClone Inc., TNF α was purchased from PeproTech Inc., Smac mimetic and Z-VAD-FMK were purchased from Selleck Inc., CCK8 was purchased from Medchem Express Inc.
# HT-29 cells (colon cancer cells) were cultured in DMEM+10% FBS+Penicillin/Streptomycin medium. During the experiments, HT-29 cells in logarithmic growth phase were harvested, seeded in a 96-well plate at specific numbers per well (typically 8×10^3 cells/well of adherent cells) and cultured overnight in a 37° C., 5% CO2 cell culture incubator. The next day, the compounds to be tested were diluted with culture medium to the corresponding concentrations and added into the corresponding wells of a 96-well plate, with 3 replicate wells for each sample, and a Vehicle control group and a blank Control group containing only culture medium were set at the same time. […] The absorbance was measured at 495 nm wavelength using a microplate reader, and the protection rate of the drug on the cells necrosis was calculated according to the following formula:
# Protection rate of cell necrosis=[(X−C0)/(C−C0)]×100%
# Wherein, C, C0, and X represent the mean absorbance values of the Vehicle control group, Blank control group and Drug treatment group, respectively. […]
compound,measurement,setting,value
COC(=O)Nc1nc2cc(-c3ccc4c(c3)c(C(=O)N[C@@H](C)c3cccc(F)c3)cn4C)ccn2n1,IC50,[1],10 to 100 nM
same,EC50,[2],< 1 nM
